Source: US20140107219A1, “LOCAL ANAESTHETIC” (VITA (EUROPE) LIMITED, priority 2011, published 2014)

Amino acid sequences for entries named in this document (tags omitted).
UniProt Q99250, whole entry: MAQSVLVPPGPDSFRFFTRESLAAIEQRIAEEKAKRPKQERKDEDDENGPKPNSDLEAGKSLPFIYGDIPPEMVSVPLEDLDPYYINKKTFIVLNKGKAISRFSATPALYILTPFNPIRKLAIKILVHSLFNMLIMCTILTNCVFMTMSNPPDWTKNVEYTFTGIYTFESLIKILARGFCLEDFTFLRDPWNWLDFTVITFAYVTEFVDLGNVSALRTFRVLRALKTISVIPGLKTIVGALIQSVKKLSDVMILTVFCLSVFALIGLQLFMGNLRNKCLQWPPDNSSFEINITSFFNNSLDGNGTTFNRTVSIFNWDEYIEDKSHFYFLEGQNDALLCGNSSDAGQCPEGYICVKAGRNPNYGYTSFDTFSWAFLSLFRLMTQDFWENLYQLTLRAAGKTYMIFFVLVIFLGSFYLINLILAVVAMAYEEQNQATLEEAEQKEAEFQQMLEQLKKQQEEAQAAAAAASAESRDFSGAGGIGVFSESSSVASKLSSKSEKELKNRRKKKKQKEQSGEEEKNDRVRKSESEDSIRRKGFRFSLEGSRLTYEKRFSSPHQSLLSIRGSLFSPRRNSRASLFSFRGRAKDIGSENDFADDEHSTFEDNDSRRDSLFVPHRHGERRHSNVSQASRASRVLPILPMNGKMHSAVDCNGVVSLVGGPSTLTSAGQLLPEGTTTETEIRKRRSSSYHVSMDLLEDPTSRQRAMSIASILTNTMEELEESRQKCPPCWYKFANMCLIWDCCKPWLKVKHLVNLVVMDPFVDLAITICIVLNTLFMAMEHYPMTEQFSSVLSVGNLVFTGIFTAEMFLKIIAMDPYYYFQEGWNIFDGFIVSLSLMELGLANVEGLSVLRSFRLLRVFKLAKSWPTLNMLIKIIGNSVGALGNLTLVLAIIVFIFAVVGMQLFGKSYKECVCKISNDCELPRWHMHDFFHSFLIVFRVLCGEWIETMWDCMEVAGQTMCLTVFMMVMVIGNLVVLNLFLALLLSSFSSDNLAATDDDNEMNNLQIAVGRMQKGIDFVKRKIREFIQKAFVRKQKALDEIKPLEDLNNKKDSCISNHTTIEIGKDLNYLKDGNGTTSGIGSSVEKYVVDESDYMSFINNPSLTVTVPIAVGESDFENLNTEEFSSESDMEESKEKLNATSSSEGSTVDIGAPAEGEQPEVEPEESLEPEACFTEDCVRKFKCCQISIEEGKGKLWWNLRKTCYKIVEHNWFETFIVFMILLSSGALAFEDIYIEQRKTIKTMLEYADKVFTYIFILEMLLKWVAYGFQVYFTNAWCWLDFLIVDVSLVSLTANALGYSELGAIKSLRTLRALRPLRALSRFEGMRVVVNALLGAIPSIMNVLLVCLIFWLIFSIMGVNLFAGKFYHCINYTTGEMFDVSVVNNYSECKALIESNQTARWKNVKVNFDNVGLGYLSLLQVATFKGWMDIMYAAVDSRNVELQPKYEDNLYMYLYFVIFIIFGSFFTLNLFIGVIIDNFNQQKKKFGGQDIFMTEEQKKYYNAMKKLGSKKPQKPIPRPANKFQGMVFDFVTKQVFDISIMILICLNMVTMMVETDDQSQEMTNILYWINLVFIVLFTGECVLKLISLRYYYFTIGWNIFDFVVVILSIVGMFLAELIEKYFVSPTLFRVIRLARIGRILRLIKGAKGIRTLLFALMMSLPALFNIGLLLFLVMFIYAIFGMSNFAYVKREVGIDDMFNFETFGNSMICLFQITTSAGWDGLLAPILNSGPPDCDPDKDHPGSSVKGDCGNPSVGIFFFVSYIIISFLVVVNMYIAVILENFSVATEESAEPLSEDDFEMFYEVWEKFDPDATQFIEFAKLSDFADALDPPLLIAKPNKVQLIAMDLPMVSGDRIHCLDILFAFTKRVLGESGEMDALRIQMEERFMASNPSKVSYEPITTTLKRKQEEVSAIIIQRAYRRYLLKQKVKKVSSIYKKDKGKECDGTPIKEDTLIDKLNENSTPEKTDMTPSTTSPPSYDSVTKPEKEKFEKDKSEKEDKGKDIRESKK

Target: T1, hNav1.2 sodium channels (SCN2A gene, expressed in CHO cells) (Homo sapiens, UniProt Q99250)
T1 construct: expressed in transfected cells; host or cells: CHO cells
Experiment: Automated patch clamp (PatchXpress 7000A), cloned hNav1.2 in CHO cells, tonic and phasic
Format: cell-based
Protocol: In this example, the in vitro effects of 2-heptanone on the following ion channels were evaluated at room temperature using the PatchXpress 7000A (Molecular Devices), an automatic parallel patch clamp system:
1. Cloned hNav1.2 sodium channels (SCN2A gene, expressed in CHO cells). 2. Cloned hNav1.6 sodium channels (SCN8A gene, expressed in CHO cells).
The effects of 2-heptanone were evaluated at 0.73, 1.46, 2.19, and 2.92 mg/ml with each concentration tested in two cells (n=2). The duration of exposure to each concentration of 2-heptanone was 5 minutes. Tables 2 to 5 show the individual results from each concentration followed by individual concentration-response curves. The positive controls (Table 6) confirm the sensitivity of the test systems to inhibition.
. Br. J. Pharmacol. 164, 719-730). […]

CCN(CC)CC(=O)Nc1c(C)cccc1C [lidocaine, 2-(diethylamino)-N-(2,6-dimethylphenyl)-acetamide, reference compound] was tested, and the “hNav1.2 IC50, phasic” value (Example 18, mean ± SEM) was 100 ± 10 µg/mL, the IC50 (Example 18, mean ± SEM, read-out: hNav1.2 IC50, tonic (converted)) was 1150 µM and the IC50 (FIG. 42, read-out: Nav1.2 IC50, phasic) was 400 µM. It also gave an IC50 (FIG. 42, read-out: Nav1.2 IC50, tonic) of 990 µM.

Read-outs that look alike come from different tables or passages of the source.
